B1: SEQ ID NO: 23330: targeting construct coexpressing a TCRα constant chain with a SAR on TFP backbone targeting BCMA and CD22, directed to the TRAC locus (protein)
chain: FKIPIEELEDRVFVNCNTSITWVEGTVGTLLSDITRLDLGKRILDPRGIYRCNGTDIYKDKESTVQVHYRMCQSCVELDPATVA
B2: SEQ ID NO: 22248: Herceptin mimotag tagged SAR (protein)
chain: MALPVTALLLPLALLLHAARPDIQMTQSPSSLSASVGDRVTITCKASDHINNWLAWYQQKPGQAPKLLIYGATTLETGVPSRFSGSGSGTDYTLTISSLQPEDFATYYCQQSWNTPWTFGQGTKLEIKRLEDLKNVFPPEVAVFEPSEAEISHTQKATLVCLATGFYPDHVELSWWVNGKEVHSGVCTDPQPLKEQPALNDSRYCLSSRLRVSATFWQNPRNHFRCQVQFYGLSENDEWTQDRAKPVTQIVSAEAWGRADCGFTSESYQQGVLSATILYEILLGKATLYAVLVSALVLMAMVKRKDSRGRAKRSGSGATNFSLLKQAGDVEENPGPTSATMDWIWRILFLVGAATGAHSGPQLGPYELWELSHGSGPLGIAGIFEQVQLQQPGAELVKPGASVKMSCKASGYAFSSYWINWMKQKPGQGLEWIGQIYPGDGDTNYNGKFKGRATLTADTSSSTAYMQLSSLTSEDSAVYFCARSITTVVGCAMDYWGQGTSVTVSSTRIQNPDPAVYQLRDSKSSDKSVCLFTDFDSQTNVSQSKDSDVYITDKCVLDMRSMDFKSNSAVAWSNKSDFACANAFNNSIIPEDTFFPSPESSCDVKLVEKSFETDTNLNFQNLSVIGFRILLLKVAGFNLLMTLRLWSSRAKRSGSGVKQTLNFDLLKLAGDVESNPGPSRGHMTEYKPTVRLATRDDVPRAVRTLAAAFADYPATRHTVDPDRHIERVTELQELFLTRVGLDIGKVWVADDGAAVAVWTTPESVEAGAVFAEIGPRMAELSGSRLAAQQQMEGLLAPHRPKEPAWFLATVGVSPDHQGKGLGSAVVLPGVEAAERAGVPAFLETSAPRNLPFYERLGFTVTADVEVPEGPRTWCMTRKPGA
modifications: Herceptin mimotag
notes: Herceptin mimotag tagged SAR

Experiments:
[1] = tested on: RAJI and L363 target cells; assay: SAR expression and function in T cells with disrupted endogenous TCR chains or with SAR directed to the TRAC locus; format: cell-based; settings: TRAC-targeted T cells, versus construct SEQ ID NO: 23329
Text: SARs with the backbones of TFPs comprising CD3ε, CD3γ, and CD3δ chains (designated as CD3ε/γ/δ TFPs) have poor expression and activity when expressed in αβ T cells that lack or have impaired functional endogenous or native TCRα or TCRβ chain polypeptide on their surface. For example, SARS represented by SEQ ID NO: 4110-4112 have impaired expression and activity (e.g., T cell activation, proliferation, cytokine production and cytotoxicity etc.) in αβ T cell in which the endogenous TRAC genomic locus has been disrupted. The disclosure provides a solution to this problem by re-expressing a TCRα constant chain (TRAC chain) polypeptide or a fragment thereof in T cells in which the expression of native full length TCRα chain polypeptide has been reduced or eliminated as described in WO2019067805, which is incorporated in its entirety by reference herein. In an exemplary embodiment, the expression and signaling activity of SARs based on CD3ε/γ/δ backbone can be restored in αβ T cells in which the expression of native TCRα chain is reduced or eliminated by expressing into such T cells a nucleic acid construct encoding an exogenous TCRα constant chain (TRAC chain) (e.g., SEQ ID NO (DNA): 1045 and SEQ ID NO (PRT): 11735) or a fragment thereof. […]

target cell lines = assay: Assay for cytokine production (ELISA); format: cell-based; settings: TRAC-targeted T cells, versus construct SEQ ID NO: 23329
Protocol: (B) Assay for cytokine production: The control vector- and SAR-expressing Jurkat-NFAT-GFP or T cells are cocultured with the target cell lines for 4-96 hours and supernatant examined for induction of cytokines (e.g., IL2, IFNγ, TNFα etc.) expresson using ELISA.

Herceptin = assay: Flow cytometry: binding of epitope tagged SAR-expressing cells to Herceptin

Row | Molecule | activation [1] | proliferation [1] | cytokine (e.g., IL2 and TNFα) production (target cell lines) | binding to Herceptin (Herceptin)
1 | B1 | greater | greater | greater | 
2 | B2 |  |  |  | showed binding to Herceptin
